In patent US9394282B2, “Pyrazole carboxamides as Janus kinase inhibitors” (Merck Sharp & Dohme Corp., priority 2011, dated 2016):
pIC50: −log10 of the molar value.

Sequences of proteins named here, by UniProt entry; tags and fusion partners are left off. Residues count along the entry.
UniProt P23458, 875-1153: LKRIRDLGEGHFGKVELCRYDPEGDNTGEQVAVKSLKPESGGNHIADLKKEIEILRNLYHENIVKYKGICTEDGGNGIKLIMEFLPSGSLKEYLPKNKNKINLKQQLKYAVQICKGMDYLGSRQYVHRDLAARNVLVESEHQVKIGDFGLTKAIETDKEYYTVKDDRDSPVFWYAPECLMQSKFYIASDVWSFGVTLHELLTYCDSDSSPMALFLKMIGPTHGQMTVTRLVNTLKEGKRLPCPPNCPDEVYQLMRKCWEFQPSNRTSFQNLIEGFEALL
UniProt O60674, 849-1124: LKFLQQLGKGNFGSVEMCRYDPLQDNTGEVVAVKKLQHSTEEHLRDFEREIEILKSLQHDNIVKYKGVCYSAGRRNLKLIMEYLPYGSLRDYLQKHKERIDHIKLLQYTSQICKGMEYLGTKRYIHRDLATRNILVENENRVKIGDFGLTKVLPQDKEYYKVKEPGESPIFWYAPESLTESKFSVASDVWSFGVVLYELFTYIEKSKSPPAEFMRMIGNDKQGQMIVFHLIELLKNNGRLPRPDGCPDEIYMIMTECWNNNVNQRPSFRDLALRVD

Tests used:
JAK1 = JAK1 (Homo sapiens (Human), UniProt P23458); assay: Jak biochemical HTRF assay, JAK1; details: recombinant purified GST-tagged catalytic domain; HTRF format; [ATP] 31.8 μM
Source text: (§1) Jak Biochemical HTRF Assay Protocol
(§2) Subsequent reagent additions employed an Agilent Bravo.

JAK2 = JAK2 (Homo sapiens (Human), UniProt O60674); assay: Jak biochemical HTRF assay, JAK2; details: recombinant purified GST-tagged catalytic domain; HTRF format; [ATP] 8.5 μM
Source text: as §1, §2

pIC50 (JAK1) | pIC50 (JAK2) | Structure (SMILES)
7.92 |  | N#C[C@@H]1CN(C(=O)OCC2CC2)CC[C@H]1n1cc(C(N)=O)c(Nc2ccc(F)cc2)n1 (racemic) [Example 5-30, cyclopropylmethyl (3R,4R and 3S,4S)-4-{4-carbamoyl-3-[(4-fluorophenyl)amino]-1H-pyrazol-1-yl}-3-cyanopiperidine-1-carboxylate]
7.92 |  | COCCCOC(=O)N1CC[C@@H](n2cc(C(N)=O)c(Nc3ccc(F)cc3)n2)[C@H](C#N)C1 (racemic) [Example 5-32, 3-methoxypropyl (3R,4R and 3S,4S)-4-{4-carbamoyl-3-[(4-fluorophenyl)amino]-1H-pyrazol-1-yl}-3-cyanopiperidine-1-carboxylate]
7.55 |  | CC1(COC(=O)N2CC[C@@H](n3cc(C(N)=O)c(Nc4ccc(F)cc4)n3)[C@H](C#N)C2)COC1 (racemic) [Example 5-33, (3-methyloxetan-3-yl)methyl (3R,4R and 3S,4S)-4-{4-carbamoyl-3-[(4-fluorophenyl)amino]-1H-pyrazol-1-yl}-3-cyanopiperidine-1-carboxylate]
8.05 |  | C#CCCOC(=O)N1CC[C@@H](n2cc(C(N)=O)c(Nc3ccc(F)cc3)n2)[C@H](C#N)C1 (racemic) [Example 5-34, but-3-yn-1-yl (3R,4R and 3S,4S)-4-{4-carbamoyl-3-[(4-fluorophenyl)amino]-1H-pyrazol-1-yl}-3-cyanopiperidine-1-carboxylate]
6.68 |  | C#CCCOC(=O)N1CC[C@H](n2cc(C(N)=O)c(Nc3ccc(F)cc3)n2)[C@H](C#N)C1 (racemic) [Example 5-40, but-3-yn-1-yl (3R,4S and 3S,4R)-4-{4-carbamoyl-3-[(4-fluorophenyl)amino]-1H-pyrazol-1-yl}-3-cyanopiperidine-1-carboxylate]
6.40 |  | N#C[C@@H]1CN(C(=O)OCCC2CC2)CC[C@@H]1n1cc(C(N)=O)c(Nc2ccc(F)cc2)n1 (racemic) [Example 5-41, 2-cyclopropylethyl (3R,4S and 3S,4R)-4-{4-carbamoyl-3-[(4-fluorophenyl)amino]-1H-pyrazol-1-yl}-3-cyanopiperidine-1-carboxylate]
6.20 |  | CC1(COC(=O)N2CC[C@H](n3cc(C(N)=O)c(Nc4ccc(F)cc4)n3)[C@H](C#N)C2)COC1 (racemic) [Example 5-45, (3-methyloxetan-3-yl)methyl (3R,4S and 3S,4R)-4-{4-carbamoyl-3-[(4-fluorophenyl)amino]-1H-pyrazol-1-yl}-3-cyanopiperidine-1-carboxylate]
6.60 |  | N#C[C@@H]1CN(C(=O)OCC2CC2)CC[C@@H]1n1cc(C(N)=O)c(Nc2ccc(F)cc2)n1 (racemic) [Example 5-46, cyclopropylmethyl (3R,4S and 3S,4R)-4-{4-carbamoyl-3-[(4-fluorophenyl)amino]-1H-pyrazol-1-yl}-3-cyanopiperidine-1-carboxylate]
6.33 |  | N#C[C@@H]1CN(C(=O)OCc2ccccc2)CC[C@@H]1n1cc(C(N)=O)c(Nc2ccc(F)cc2)n1 (racemic) [Example 5-52, benzyl (3R,4S and 3S,4R)-4-{4-carbamoyl-3-[(4-fluorophenyl)amino]-1H-pyrazol-1-yl}-3-cyanopiperidine-1-carboxylate]
6.30 |  | CC(C)COC(=O)N1CC[C@H](n2cc(C(N)=O)c(Nc3ccc(F)cc3)n2)[C@H](C#N)C1 (racemic) [Example 5-56, 2-methylpropyl (3R,4S and 3S,4R)-4-{4-carbamoyl-3-[(4-fluorophenyl)amino]-1H-pyrazol-1-yl}-3-cyanopiperidine-1-carboxylate]
6.22 |  | N#C[C@@H]1CN(C(=O)OC2CCCCC2)CC[C@@H]1n1cc(C(N)=O)c(Nc2ccc(F)cc2)n1 (racemic) [Example 5-61, cyclohexyl (3R,4S and 3S,4R)-4-{4-carbamoyl-3-[(4-fluorophenyl)amino]-1H-pyrazol-1-yl}-3-cyanopiperidine-1-carboxylate]
6.29 |  | CC1(COC(=O)N2CC[C@H](n3cc(C(N)=O)c(Nc4ccc(F)cc4)n3)[C@H](C#N)C2)CC1 (racemic) [Example 5-62, (1-methylcyclopropyl)methyl (3R,4S and 3S,4R)-4-{4-carbamoyl-3-[(4-fluorophenyl)amino]-1H-pyrazol-1-yl}-3-cyanopiperidine-1-carboxylate]
6.14 |  | COCCCOC(=O)N1CC[C@H](n2cc(C(N)=O)c(Nc3ccc(F)cc3)n2)[C@H](C#N)C1 (racemic) [Example 5-63, 3-methoxypropyl (3R,4S and 3S,4R)-4-{4-carbamoyl-3-[(4-fluorophenyl)amino]-1H-pyrazol-1-yl}-3-cyanopiperidine-1-carboxylate]
8.40 |  | N#C[C@@H]1CCN(Cc2cc(F)ccn2)C[C@H]1n1cc(C(N)=O)c(Nc2ccc(F)cc2)n1 (racemic) [Example 6-7, 1-{(3S,4R and 3R,4S)-4-cyano-1-[(4-fluoropyridin-2-yl)methyl]piperidin-3-yl}-3-[(4-fluorophenyl)amino]-1H-pyrazole-4-carboxamide]
8.30 |  | N#C[C@@H]1CCN(CC2CCC2)C[C@H]1n1cc(C(N)=O)c(Nc2ccc(F)cc2)n1 (racemic) [Example 6-12, 1-[(3S,4R and 3R,4S)-4-cyano-1-(cyclobutylmethyl)piperidin-3-yl]-3-[(4-fluorophenyl)amino]-1H-pyrazole-4-carboxamide]
8.70 |  | CCn1ccnc1CN1CC[C@@H](C#N)[C@H](n2cc(C(N)=O)c(Nc3ccc(F)cc3)n2)C1 (racemic) [Example 6-19, 1-{(3S,4R and 3R,4S)-4-cyano-1-[(1-ethyl-1H-imidazol-2-yl)methyl]piperidin-3-yl}-3-[(4-fluorophenyl)amino]-1H-pyrazole-4-carboxamide]
8.15 | 7.12 | N#C[C@@H]1CN(Cc2cnccn2)CC[C@H]1n1cc(C(N)=O)c(Nc2ccc(F)cc2)n1 (racemic) [Example 6-23, 1-[(3R,4R and 3S,4S)-3-cyano-1-(pyrazin-2-ylmethyl)piperidin-4-yl]-3-[(4-fluorophenyl)amino]-1H-pyrazole-4-carboxamide]
8.30 |  | N#C[C@@H]1CN(Cc2cscn2)CC[C@H]1n1cc(C(N)=O)c(Nc2ccc(F)cc2)n1 (racemic) [Example 6-27, 1-[(3R,4R and 3S,4S)-3-cyano-1-(1,3-thiazol-4-ylmethyl)piperidin-4-yl]-3-[(4-fluorophenyl)amino]-1H-pyrazole-4-carboxamide]
8.30 |  | N#C[C@@H]1CN(Cc2ncco2)CC[C@H]1n1cc(C(N)=O)c(Nc2ccc(F)cc2)n1 (racemic) [Example 6-29, 1-[(3R,4R and 3S,4S)-3-cyano-1-(1,3-oxazol-2-ylmethyl)piperidin-4-yl]-3-[(4-fluorophenyl)amino]-1H-pyrazole-4-carboxamide]
8.52 | 7.68 | N#C[C@@H]1CCOC[C@H]1n1cc(C(N)=O)c(Nc2ccc([C@@H](O)C(F)(F)F)cc2)n1 (single isomer, unassigned) [Example 9-6, 1-[(3S,4R or 3R,4S)-4-cyanotetrahydro-2H-pyran-3-yl]-3-({4-[(1R or 1S)-2,2,2-trifluoro-1-hydroxyethyl]phenyl}amino)-1H-pyrazole-4-carboxamide]
8.40 | 7.57 | N#C[C@@H]1CCOC[C@H]1n1cc(C(N)=O)c(Nc2ccc([C@H](O)C(F)(F)F)cc2)n1 (single isomer, unassigned) [Example 9-7, 1-[(3S,4R or 3R,4S)-4-cyanotetrahydro-2H-pyran-3-yl]-3-({4-[(1S or 1R)-2,2,2-trifluoro-1-hydroxyethyl]phenyl}amino)-1H-pyrazole-4-carboxamide]
10.05 | 9.22 | N#C[C@H]1CCOC[C@@H]1n1cc(C(N)=O)c(Nc2ccc([C@@H](O)C(F)(F)F)cc2)n1 (single isomer, unassigned) [Example 9-8, 1-[(3R,4S or 3S,4R)-4-cyanotetrahydro-2H-pyran-3-yl]-3-({4-[(1R or 1S)-2,2,2-trifluoro-1-hydroxyethyl]phenyl}amino)-1H-pyrazole-4-carboxamide]
10.05 | 9.15 | N#C[C@H]1CCOC[C@@H]1n1cc(C(N)=O)c(Nc2ccc([C@H](O)C(F)(F)F)cc2)n1 (single isomer, unassigned) [Example 9-9, 1-[(3R,4S or 3S,4R)-4-cyanotetrahydro-2H-pyran-3-yl]-3-({4-[(1S or 1R)-2,2,2-trifluoro-1-hydroxyethyl]phenyl}amino)-1H-pyrazole-4-carboxamide]
7.51 |  | N#C[C@H]1CCOC[C@@H]1n1cc(C(N)=O)c(Nc2ccc(Cl)nc2)n1 (single isomer, unassigned) [Example 9-27, 3-[(6-chloropyridin-3-yl)amino]-1-[(3R,4S or 3S,4R)-4-cyanotetrahydro-2H-pyran-3-yl]-1H-pyrazole-4-carboxamide]
9.30 |  | N#C[C@@H]1CCOC[C@H]1n1cc(C(N)=O)c(Nc2ccc(Cl)nc2)n1 (single isomer, unassigned) [Example 9-28, 3-[(6-chloropyridin-3-yl)amino]-1-[(3S,4R or 3R,4S)-4-cyanotetrahydro-2H-pyran-3-yl]-1H-pyrazole-4-carboxamide]
7.42 |  | N#C[C@H]1CCOC[C@@H]1n1cc(C(N)=O)c(Nc2ccc(C(F)F)nc2)n1 (single isomer, unassigned) [Example 9-32, 1-[(3R,4S or 3S,4R)-4-cyanotetrahydro-2H-pyran-3-yl]-3-{[6-(difluoromethyl)pyridin-3-yl]amino}-1H-pyrazole-4-carboxamide]
9.30 |  | N#C[C@@H]1CCOC[C@H]1n1cc(C(N)=O)c(Nc2ccc(C(F)F)nc2)n1 (single isomer, unassigned) [Example 9-33, 1-[(3S,4R or 3R,4S)-4-cyanotetrahydro-2H-pyran-3-yl]-3-{[6-(difluoromethyl)pyridin-3-yl]amino}-1H-pyrazole-4-carboxamide]
10.30 |  | CN(C)C(=O)c1ccc(Nc2nn([C@H]3COCC[C@@H]3C#N)cc2C(N)=O)cc1 (single isomer, unassigned) [Example 9-34, 1-[(3R,4S or 3S,4R)-4-cyanotetrahydro-2H-pyran-3-yl]-3-{[4-(dimethylcarbamoyl)phenyl]amino}-1H-pyrazole-4-carboxamide]
